The record followed here is article PMC3669024, “Pharmacological Characterization of a 5-HT1-Type Serotonin Receptor in the Red Flour Beetle, Tribolium castaneum” (PLoS ONE, 2013).

Amino acid sequences for entries named in this document (tags omitted).
UniProt R9ULB8, entry or part of it: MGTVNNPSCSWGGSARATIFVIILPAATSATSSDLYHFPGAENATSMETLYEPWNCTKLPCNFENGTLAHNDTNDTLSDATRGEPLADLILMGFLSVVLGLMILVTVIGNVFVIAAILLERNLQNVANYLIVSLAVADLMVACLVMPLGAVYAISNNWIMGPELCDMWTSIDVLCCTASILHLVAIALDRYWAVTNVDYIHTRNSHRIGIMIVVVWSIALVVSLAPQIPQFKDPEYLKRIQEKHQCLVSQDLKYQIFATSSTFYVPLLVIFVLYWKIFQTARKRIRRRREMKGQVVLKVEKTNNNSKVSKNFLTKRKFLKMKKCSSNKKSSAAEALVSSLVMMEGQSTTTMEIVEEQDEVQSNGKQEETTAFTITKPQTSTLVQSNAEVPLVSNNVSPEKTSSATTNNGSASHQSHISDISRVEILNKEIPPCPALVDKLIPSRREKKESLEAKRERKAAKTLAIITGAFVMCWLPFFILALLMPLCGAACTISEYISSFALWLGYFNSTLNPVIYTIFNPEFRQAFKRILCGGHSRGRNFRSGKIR

The target of this assay is Trica5-HT1 (Tribolium castaneum, UniProt R9ULB8). The assay can be described thus: Aequorin-luminescence assay, antagonist inhibition of 5-HT mediated activation of Trica5-HT1 in CHO-WTA11 cells. Type of assay: cell-based. The method, then:
General binding studies were performed in Chinese hamster ovary (CHO) WTA11 cells stably coexpressing apoaequorin and the promiscuous Gα16. This allowed us to measure the pharmacology independent of the downstream signaling. CHO-PAM28 cells stably expressing apoaequorin, but not the promiscuous Gα16, and human embryonic kidney cells (HEK) 293 cells were used to measure downstream signaling via Ca^2+ and cAMP, respectively. CHO cell lines were provided by Prof. Marc Parmentier (University of Brussels, Belgium) and Dr. Michel Detheux (Euroscreen S.A., Belgium). HEK293 cells were a gift from Prof. Arnd Baumann (Research Centre Jülich, Germany.
Cells were cultured in vitro as monolayers at 37°C, 5% CO2 and high relative humidity, and subcultivated twice a week. […] HEK293 cells were cotransfected with receptor construct (4 µg) and CRE-luciferase construct (2 µg), consisting of the open reading frame of the reporter gene, luciferase, downstream of a multimerized cAMP-response-element (CRE6x), [39]. […]
The transfected CHO cells were detached with phosphate buffered saline (PBS) containing 0.2% EDTA and collected in DMEM/F-12 (without phenol red, with L-glutamine and 10 mM HEPES) (Gibco). The amount of viable cells was determined using the NucleoCounter NC-100+TM (Chemometic). […] Receptor activity was measured as the light emission after adding 50 µl of the cell suspension. […]

Molecules are shown by their SMILES. Structures can show the parent of a compound that is named as a salt.

`CN1CCN2c3ccccc3Cc3ccccc3C2C1` (centres unmarked) [mianserin, mianserin hydrochloride]: the “agonistic effects at high concentration” value (100 µM, with 5-HT 100 nM) was “some agonistic effects”. Further, for the setting “5-HT 100 nM, antagonist 10 nM to 1 mM”, the “inhibition of 5-HT induced responses (words)” value is given as “no detectable inhibition”.
